# Several values for one entry are separate records, joined by “and”; a condition that tells them apart may be missing. Equal values may be shown once. Read-outs that look alike come from different tables or passages of the source.
# Assays:
# [1] = system: Plato (Large Green Lentil) seeds
# [2] = system: Camry (Green Pea) seeds
# [3] = system: Frontier (Kabuli Chickpea) seeds
# [4] = system: AC Polaris seedlings; assay: Emergence of seedlings in the greenhouse (AC Polaris); assay type: in vivo, Phaseolus vulgaris; settings: for SUM of seedlings emerged: 20 seeds; for SUM of seedlings emerged / MEAN seedlings emerged per replication: three weeks; for seedlings emerged per replication: greenhouse trial #1, three weeks after planting, five seeds per pot
# [5] = system: Myles (Dezi Chickpea) seeds
# [6] = system: dry bean (Phaseolus vulgaris L) seeds, cultivar Othello; assay: Germination of dry bean seeds with aqueous seed coating under high bacterial load; assay type: in vivo
# Experimental: The efficacy of high valency silver ions produced by oxysilver nitrate was evaluated as a seed treatment on diseased dry bean seeds. The oxysilver nitrate was applied as an aqueous seed coating on the germination of dry bean (Phaseolus vulgaris L).
# Seeds were placed on blotters in Petri plates, were soaked in an excess of water for 3 days, then drained on day 4. The 3-day period of excess water created a very high bacterial load′ on the germinating seeds and high disease pressure due to pathogenic, saprophytic and soft-rot bacteria. This disease pressure was so extreme that the germination rates for experiments 2-5 were essentially zero due to being overwhelmed by the microbial growth.
# [7] = system: healthy dry bean seed; assay: Germination of healthy dry bean seed; assay type: in vivo; settings: 1%
# [8] = system: Orford (Soybean) seeds
# [9] = system: dry bean (Phaseolus vulgaris L. cv. Othello) seeds; assay: Germination of treated dry bean seeds on King's B agar plates (Othello); assay type: in vivo; settings: for SUM of seeds germinated, 10 plates: 50 seeds; for seeds germinated per plate: plates 1-10, 50 seeds in all
# [10] = system: dry bean (Phaseolus vulgaris L. cv. AC Polaris) seeds; assay: Germination of treated dry bean seeds on King's B agar plates (AC Polaris); assay type: in vivo; settings: for SUM of seeds germinated, 10 plates: 50 seeds; for seeds germinated per plate: plates 1-10, 50 seeds in all
# [11] = system: dry bean (Phaseolus vulgaris L. cv. Othello) seedlings; assay: Emergence of seedlings in the greenhouse (Othello); assay type: in vivo; settings: for seedlings emerged per replication: greenhouse trials #1 and #2, three weeks after planting, five seeds per pot; for MEAN of Trials 1 and 2, seedling emergence / TOTAL of Trials 1 and 2, seedling emergence / SUM of seedlings emerged per trial / MEAN seedlings emerged per replication, per trial: three weeks; for SUM of seedlings emerged per trial / MEAN seedlings emerged per replication, per trial: trial #1 or #2; for SUM of seedlings emerged per trial: 20 seeds
substance,measurement,setting,value
oxysilver nitrate [High valency silver],seeds germinated out of 50,"[1]; 0.1%, on blotters for 7-days",46
same,seeds germinated out of 50,"[1]; 0.1%, on blotters for 14-days",49
same,seeds germinated out of 50,"[1]; 0.25%, on blotters for 7-days",46
same,seeds germinated out of 50,"[1]; 0.25%, on blotters for 14-days",48
same,seeds germinated out of 50,"[1]; 0.5%, on blotters for 7-days",49
same,seeds germinated out of 50,"[1]; 0.5%, on blotters for 14-days",49
same,seeds germinated out of 50,"[1]; 1%, on blotters for 7-days",42
same,seeds germinated out of 50,"[1]; 1%, on blotters for 14-days",47
same,seeds germinated out of 50,"[2]; 0.1%, on blotters for 7-days",46
same,seeds germinated out of 50,"[2]; 0.1%, on blotters for 14-days",45
same,seeds germinated out of 50,"[2]; 0.25%, on blotters for 7-days",48
same,seeds germinated out of 50,"[2]; 0.25%, on blotters for 14-days",46
same,seeds germinated out of 50,"[2]; 0.5%, on blotters for 7-days",48
same,seeds germinated out of 50,"[2]; 0.5%, on blotters for 14-days",48
same,seeds germinated out of 50,"[2]; 1%, on blotters for 7-days",47
same,seeds germinated out of 50,"[2]; 1%, on blotters for 14-days",46
same,seeds germinated out of 50,"[3]; 0.1%, on blotters for 7-days",40
same,seeds germinated out of 50,"[3]; 0.1%, on blotters for 14-days",45
same,seeds germinated out of 50,"[3]; 0.25%, on blotters for 7-days",45
same,seeds germinated out of 50,"[3]; 0.25%, on blotters for 14-days",41
same,seeds germinated out of 50,"[3]; 0.5%, on blotters for 7-days",48
same,seeds germinated out of 50,"[3]; 0.5%, on blotters for 14-days",48
same,seeds germinated out of 50,"[3]; 1%, on blotters for 7-days",47
same,seeds germinated out of 50,"[3]; 1%, on blotters for 14-days",45
same,SUM of seedlings emerged,[4]; 0.05% in talc,18
same,seedlings emerged per replication,[4]; 0.05% in talc,4 and 5
same,MEAN seedlings emerged per replication,[4]; 0.05% in talc,4.5
same,SUM of seedlings emerged,[4]; 0.05% in water,15
same,seedlings emerged per replication,[4]; 0.05% in water,4 and 3
same,MEAN seedlings emerged per replication,[4]; 0.05% in water,3.75
same,SUM of seedlings emerged,[4]; 0.1% in talc,20
same,seedlings emerged per replication,[4]; 0.1% in talc,5
same,MEAN seedlings emerged per replication,[4]; 0.1% in talc,5
same,SUM of seedlings emerged,[4]; 0.1% in water,16
same,seedlings emerged per replication,[4]; 0.1% in water,4 and 5 and 3
same,MEAN seedlings emerged per replication,[4]; 0.1% in water,4
same,seeds germinated out of 50,"[5]; 0.1%, on blotters for 7-days",47
same,seeds germinated out of 50,"[5]; 0.1%, on blotters for 14-days",44
same,seeds germinated out of 50,"[5]; 0.25%, on blotters for 7-days",45
same,seeds germinated out of 50,"[5]; 0.25%, on blotters for 14-days",46
same,seeds germinated out of 50,"[5]; 0.5%, on blotters for 7-days",44
same,seeds germinated out of 50,"[5]; 0.5%, on blotters for 14-days",47
same,seeds germinated out of 50,"[5]; 1%, on blotters for 7-days",45
same,seeds germinated out of 50,"[5]; 1%, on blotters for 14-days",45
same,phytotoxicity / effect on germination (words),[6],no phytotoxic effect on germinating seeds
same,phytotoxicity / effect on germination (words),[6]; listed as high valency silver,no negative effects on germination
same,Day to 50% germination,[7],5.0 days
same,seeds germinated out of 50,"[8]; 0.1%, on blotters for 7-days",7
same,seeds germinated out of 50,"[8]; 0.1%, on blotters for 14-days",25
same,seeds germinated out of 50,"[8]; 0.25%, on blotters for 7-days",8
same,seeds germinated out of 50,"[8]; 0.25%, on blotters for 14-days",27
same,seeds germinated out of 50,"[8]; 0.5%, on blotters for 7-days",10
same,seeds germinated out of 50,"[8]; 0.5%, on blotters for 14-days",29
same,seeds germinated out of 50,"[8]; 1%, on blotters for 7-days",19
same,seeds germinated out of 50,"[8]; 1%, on blotters for 14-days",32
same,effect on germination,"[8]; any pulse seed in this experiment (pea, chickpea, lentil, soybean)",no negative effects on germination of any pulse seed
same,MEAN seeds germinated per plate,[9]; 0.05% in talc,5
same,"SUM of seeds germinated, 10 plates",[9]; 0.05% in talc,50
same,seeds germinated per plate,[9]; 0.05% in talc,5
same,MEAN seeds germinated per plate,[9]; 0.05% in water,5
same,"SUM of seeds germinated, 10 plates",[9]; 0.05% in water,50
same,seeds germinated per plate,[9]; 0.05% in water,5
same,MEAN seeds germinated per plate,[9]; 0.1% in talc,4.8
same,"SUM of seeds germinated, 10 plates",[9]; 0.1% in talc,48
same,seeds germinated per plate,[9]; 0.1% in talc,5 and 4
same,MEAN seeds germinated per plate,[9]; 0.1% in water,5
same,"SUM of seeds germinated, 10 plates",[9]; 0.1% in water,50
same,seeds germinated per plate,[9]; 0.1% in water,5
same,MEAN seeds germinated per plate,[10]; 0.05% in talc,4.6
same,"SUM of seeds germinated, 10 plates",[10]; 0.05% in talc,46
same,seeds germinated per plate,[10]; 0.05% in talc,5 and 4 and 3
same,MEAN seeds germinated per plate,[10]; 0.05% in water,3.8
same,"SUM of seeds germinated, 10 plates",[10]; 0.05% in water,38
same,MEAN seeds germinated per plate,[10]; 0.1% in talc,4.6
same,"SUM of seeds germinated, 10 plates",[10]; 0.1% in talc,46
same,seeds germinated per plate,[10]; 0.1% in talc,5 and 4
same,MEAN seeds germinated per plate,[10]; 0.1% in water,3.8
same,"SUM of seeds germinated, 10 plates",[10]; 0.1% in water,38
same,seedlings emerged per replication,[11]; 0.05% in talc,4 and 5
same,"MEAN of Trials 1 and 2, seedling emergence",[11]; 0.05% in talc,4.625
same,"TOTAL of Trials 1 and 2, seedling emergence",[11]; 0.05% in talc,37
same,SUM of seedlings emerged per trial,[11]; 0.05% in talc,18 and 19
same,"MEAN seedlings emerged per replication, per trial",[11]; 0.05% in talc,4.5 and 4.75
same,seedlings emerged per replication,[11]; 0.05% in water,4 and 5
same,"MEAN of Trials 1 and 2, seedling emergence",[11]; 0.05% in water,4.875
same,"TOTAL of Trials 1 and 2, seedling emergence",[11]; 0.05% in water,39
same,SUM of seedlings emerged per trial,[11]; 0.05% in water,19 and 20
same,"MEAN seedlings emerged per replication, per trial",[11]; 0.05% in water,4.75 and 5
same,seedlings emerged per replication,[11]; 0.1% in talc,3 and 5 and 4
same,"MEAN of Trials 1 and 2, seedling emergence",[11]; 0.1% in talc,4.125
same,"TOTAL of Trials 1 and 2, seedling emergence",[11]; 0.1% in talc,33
same,SUM of seedlings emerged per trial,[11]; 0.1% in talc,16 and 17
same,"MEAN seedlings emerged per replication, per trial",[11]; 0.1% in talc,4 and 4.25
same,seedlings emerged per replication,[11]; 0.1% in water,4 and 3 and 5
same,"MEAN of Trials 1 and 2, seedling emergence",[11]; 0.1% in water,4.25
same,"TOTAL of Trials 1 and 2, seedling emergence",[11]; 0.1% in water,34
same,SUM of seedlings emerged per trial,[11]; 0.1% in water,15 and 19
same,"MEAN seedlings emerged per replication, per trial",[11]; 0.1% in water,3.75 and 4.75
